In experiment [1] the target is T1, human A2a receptor subtype (Homo sapiens, UniProt P29274).
T1 construct: expressed in transfected cells; host or cells: HEK-293 (Cadus clone # 5)
As to the kind of experiment: Adenosine 2a receptor subtype competition radioligand binding ([3H]CGS-21680, HEK293 membranes). To be noted: Table 13.

By UniProt entry, the sequences of proteins in these tests, tags left out.
UniProt P30542, whole entry: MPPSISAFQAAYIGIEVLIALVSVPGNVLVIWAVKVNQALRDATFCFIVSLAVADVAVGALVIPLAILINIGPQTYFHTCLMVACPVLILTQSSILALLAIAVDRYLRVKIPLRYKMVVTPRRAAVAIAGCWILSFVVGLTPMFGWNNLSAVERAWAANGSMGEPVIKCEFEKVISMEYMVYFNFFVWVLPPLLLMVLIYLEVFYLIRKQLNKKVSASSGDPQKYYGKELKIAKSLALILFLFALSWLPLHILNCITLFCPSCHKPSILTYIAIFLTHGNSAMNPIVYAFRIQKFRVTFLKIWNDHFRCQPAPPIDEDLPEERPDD

Experiment [2] concerns the target T2, human A2b receptor subtype (Homo sapiens, UniProt P29275).
T2 construct: expressed in transfected cells; host or cells: HEK293
T2 sequence (P29275 1-332): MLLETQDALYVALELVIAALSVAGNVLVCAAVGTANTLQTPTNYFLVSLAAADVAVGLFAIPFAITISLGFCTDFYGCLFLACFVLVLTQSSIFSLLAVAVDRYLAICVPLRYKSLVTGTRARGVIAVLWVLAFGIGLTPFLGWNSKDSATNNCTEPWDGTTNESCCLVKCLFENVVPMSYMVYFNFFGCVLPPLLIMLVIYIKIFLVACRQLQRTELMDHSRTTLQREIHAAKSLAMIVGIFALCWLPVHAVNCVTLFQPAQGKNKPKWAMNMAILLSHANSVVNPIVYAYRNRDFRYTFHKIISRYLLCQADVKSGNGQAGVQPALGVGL
As to the kind of experiment: Adenosine 2b receptor subtype competition radioligand binding ([3H]DPCPX, HEK293 membranes). To be noted: Table 13.

Experiment [3] concerns the target human A1 receptor subtype (Homo sapiens, UniProt P30542). As to the kind of experiment: biochemical.

The structures appear in SMILES notation.

Turning to `CC(=O)NC1CCCN(Nc2nc(-c3ccccc3)nc3[nH]c(C)c(C)c23)C1` (stereo not drawn) [Compound 1309], the Ki in experiment [1] and in experiment [2] was 109 nM each time.
For the compound `Cc1[nH]c2nc(-c3ccccc3)nc(NC3CC[C@@H](O)C3)c2c1C` (stereo partly drawn) [Compound 1307], the Ki in experiment [3] is 29.1 nM.

The values above are taken from patent US6878716B1, “Compounds specific to adenosine A1 receptor and uses thereof” (OSI Pharmaceuticals, Inc., priority 1998, dated 2005).
